Earlier results on one molecule are cited in patent publication US20160160213A1, “METHODS OF TREATING CANCER AND PREVENTING CANCER DRUG RESISTANCE” (Genentech, Inc., priority 2013, published 2016).

By UniProt entry, the sequences of proteins in these tests, tags left out.
UniProt Q15910, whole entry: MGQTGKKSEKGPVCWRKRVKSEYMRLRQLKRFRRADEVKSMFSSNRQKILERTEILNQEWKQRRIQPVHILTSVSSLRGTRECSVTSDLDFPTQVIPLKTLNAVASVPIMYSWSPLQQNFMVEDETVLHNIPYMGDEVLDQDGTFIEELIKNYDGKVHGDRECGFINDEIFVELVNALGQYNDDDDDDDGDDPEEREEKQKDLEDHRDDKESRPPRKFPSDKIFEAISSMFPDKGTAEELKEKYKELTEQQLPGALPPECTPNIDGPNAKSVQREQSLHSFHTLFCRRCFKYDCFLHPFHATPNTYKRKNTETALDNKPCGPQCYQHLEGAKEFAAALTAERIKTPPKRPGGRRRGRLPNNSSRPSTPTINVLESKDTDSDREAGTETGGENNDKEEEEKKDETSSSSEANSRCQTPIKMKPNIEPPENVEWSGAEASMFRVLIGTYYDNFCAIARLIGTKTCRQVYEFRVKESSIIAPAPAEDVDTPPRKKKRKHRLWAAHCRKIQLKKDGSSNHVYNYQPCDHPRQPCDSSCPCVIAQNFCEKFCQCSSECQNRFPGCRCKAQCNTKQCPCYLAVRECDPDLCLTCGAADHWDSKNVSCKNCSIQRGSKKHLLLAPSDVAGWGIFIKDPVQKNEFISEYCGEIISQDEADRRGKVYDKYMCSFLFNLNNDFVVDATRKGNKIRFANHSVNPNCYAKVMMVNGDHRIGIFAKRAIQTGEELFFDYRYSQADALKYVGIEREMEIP
UniProt Q09028, whole entry partner: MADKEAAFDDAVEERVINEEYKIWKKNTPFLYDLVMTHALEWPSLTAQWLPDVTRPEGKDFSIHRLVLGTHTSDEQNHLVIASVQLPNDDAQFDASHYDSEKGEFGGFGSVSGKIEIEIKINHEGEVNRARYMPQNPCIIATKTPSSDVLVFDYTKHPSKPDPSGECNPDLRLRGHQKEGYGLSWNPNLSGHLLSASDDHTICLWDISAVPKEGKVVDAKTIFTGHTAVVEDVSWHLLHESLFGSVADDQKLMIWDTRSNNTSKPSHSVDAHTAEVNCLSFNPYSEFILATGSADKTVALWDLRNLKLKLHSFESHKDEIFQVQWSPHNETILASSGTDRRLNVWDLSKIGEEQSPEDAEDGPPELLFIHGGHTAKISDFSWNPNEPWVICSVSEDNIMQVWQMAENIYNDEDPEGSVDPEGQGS
UniProt O75530, whole entry partner: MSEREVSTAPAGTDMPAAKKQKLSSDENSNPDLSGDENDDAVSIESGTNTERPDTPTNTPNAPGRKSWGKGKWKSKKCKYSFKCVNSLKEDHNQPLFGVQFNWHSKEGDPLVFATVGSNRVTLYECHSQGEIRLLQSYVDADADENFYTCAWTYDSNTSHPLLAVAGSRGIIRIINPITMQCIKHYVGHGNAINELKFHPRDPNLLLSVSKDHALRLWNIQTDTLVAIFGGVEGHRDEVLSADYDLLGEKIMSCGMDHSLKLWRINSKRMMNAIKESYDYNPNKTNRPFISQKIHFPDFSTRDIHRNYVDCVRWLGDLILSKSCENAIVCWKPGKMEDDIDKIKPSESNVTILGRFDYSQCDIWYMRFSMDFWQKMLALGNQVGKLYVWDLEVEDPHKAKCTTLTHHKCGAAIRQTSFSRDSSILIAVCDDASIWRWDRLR
UniProt Q15022, whole entry partner: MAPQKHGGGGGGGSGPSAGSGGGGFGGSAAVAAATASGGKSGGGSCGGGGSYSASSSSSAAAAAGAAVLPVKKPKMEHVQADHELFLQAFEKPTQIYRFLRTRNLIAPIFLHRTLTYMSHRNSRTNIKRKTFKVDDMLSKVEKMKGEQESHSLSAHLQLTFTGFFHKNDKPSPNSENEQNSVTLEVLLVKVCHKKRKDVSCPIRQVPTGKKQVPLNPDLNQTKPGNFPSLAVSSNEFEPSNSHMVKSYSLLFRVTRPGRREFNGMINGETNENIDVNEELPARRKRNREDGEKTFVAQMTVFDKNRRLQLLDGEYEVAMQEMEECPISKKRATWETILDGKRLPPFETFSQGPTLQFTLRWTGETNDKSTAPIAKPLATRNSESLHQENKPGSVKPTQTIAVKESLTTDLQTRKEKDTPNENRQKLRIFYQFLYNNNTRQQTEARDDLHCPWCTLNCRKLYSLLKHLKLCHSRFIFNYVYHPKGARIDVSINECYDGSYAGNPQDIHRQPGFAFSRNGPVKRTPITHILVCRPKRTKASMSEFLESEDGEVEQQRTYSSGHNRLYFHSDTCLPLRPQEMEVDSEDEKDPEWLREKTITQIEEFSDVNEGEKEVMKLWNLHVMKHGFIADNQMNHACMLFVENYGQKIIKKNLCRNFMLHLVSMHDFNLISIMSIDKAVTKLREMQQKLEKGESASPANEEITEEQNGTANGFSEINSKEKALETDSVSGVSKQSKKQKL

For the series, the target named is EZH2 (Homo sapiens, UniProt Q15910). The note with it: read-out: EZH2 Ki^app; cited from earlier work.

The structures appear in SMILES notation.

`Cc1cc(C)c(CNC(=O)c2cc(-c3ccc(N4CCN(C)CC4)nc3)cc3c2cnn3C(C)C)c(=O)[nH]1`: the Ki was 7.9 nM.
